Data as given in article PMC9303312, “Balancing Histone Deacetylase (HDAC) Inhibition and Drug‐likeness: Biological and Physicochemical Evaluation of Class I Selective HDAC Inhibitors” (Chemmedchem, 2022).

Chains of the proteins cited; added tags and fusions are not shown.
UniProt Q13547, whole entry: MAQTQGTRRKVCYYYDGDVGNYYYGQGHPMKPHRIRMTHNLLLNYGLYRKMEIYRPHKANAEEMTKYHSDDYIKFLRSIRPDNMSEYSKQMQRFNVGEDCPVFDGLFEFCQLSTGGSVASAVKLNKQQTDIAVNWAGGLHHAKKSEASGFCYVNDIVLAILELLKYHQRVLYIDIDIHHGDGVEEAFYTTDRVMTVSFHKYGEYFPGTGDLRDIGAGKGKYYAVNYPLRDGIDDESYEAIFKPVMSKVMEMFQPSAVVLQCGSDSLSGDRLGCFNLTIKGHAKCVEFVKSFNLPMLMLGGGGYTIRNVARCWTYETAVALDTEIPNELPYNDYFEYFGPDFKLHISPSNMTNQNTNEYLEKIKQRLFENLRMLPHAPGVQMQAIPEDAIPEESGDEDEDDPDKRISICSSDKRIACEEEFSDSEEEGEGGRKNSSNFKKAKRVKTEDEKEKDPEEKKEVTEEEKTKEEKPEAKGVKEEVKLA

Biological target: HDAC1 (Homo sapiens, UniProt Q13547)
Test: IC50-shift experiments (varied preincubation time)
Format: biochemical
Conditions: triplicates

IC50 (HDAC1 IC50, preincubation 5 min, preincubation time 5 min at 20°C): 0.053 µM
IC50 (HDAC1 IC50, preincubation 15 min, preincubation time 15 min at 20°C): 0.0489 µM
IC50 (HDAC1 IC50, preincubation 30 min, preincubation time 30 min at 20°C): 0.0347 µM
IC50 (HDAC1 IC50, preincubation 60 min, preincubation time 60 min at 20°C): 0.0279 µM
SMILES: CN(C)c1ccc(C(=O)N(CC(=O)NC(C)(C)C)Cc2ccc(C(=O)Nc3cc(-c4ccncc4)ccc3N)cc2)cc1 [10 c]
